According to patent US5723719A, “Transgenic mouse as model for diseases involving dopaminergic dysfunction” (Health Research Inc., priority 1995, dated 1998):
Entries after “also recorded” stand apart in the source; their conditions may differ.

System: transgenic mice and control mice
Conditions: mouse, in vivo

CCCN1CCC[C@@H]2Cc3n[nH]cc3C[C@H]21 [quinpirole]
Stereotyped sniffing (summed score, 1 hour): equivalent dose-related increases in stereotyped sniffing; also recorded: greater sniffing than control mice at the 1.0 mg/kg dose only
